Source: patent US20120171201A1

Assays:
[1] = test system: human gastric carcinoma N87; assay: Therapeutic efficacy in human N87 gastric carcinoma xenografted mice; conditions: Herceptin 20 mg/kg/dose q7d i.p.
HER2 positive cancer = conditions: patients with aggressive HER2 positive cancer; cited from earlier work

Herceptin®: recombinant humanized monoclonal antibody directed against the human epidermal growth factor receptor 2 (HER2)
gastric tumor growth inhibition ([1]; compound 9 5 mg/kg/dose q2d×5 i.v., FIG. 5): did not inhibit gastric tumor growth | tumor volume increased compared to day 0 ([1]; day 40): 613% | reduced risk of a relapse (HER2 positive cancer): by more than half
